Protein sequences, listed by entry. Tags and fused reporters are not part of them. Lines headed by an entry give the natural chain unless they say otherwise; changes in a name come on top.
UniProt P30874: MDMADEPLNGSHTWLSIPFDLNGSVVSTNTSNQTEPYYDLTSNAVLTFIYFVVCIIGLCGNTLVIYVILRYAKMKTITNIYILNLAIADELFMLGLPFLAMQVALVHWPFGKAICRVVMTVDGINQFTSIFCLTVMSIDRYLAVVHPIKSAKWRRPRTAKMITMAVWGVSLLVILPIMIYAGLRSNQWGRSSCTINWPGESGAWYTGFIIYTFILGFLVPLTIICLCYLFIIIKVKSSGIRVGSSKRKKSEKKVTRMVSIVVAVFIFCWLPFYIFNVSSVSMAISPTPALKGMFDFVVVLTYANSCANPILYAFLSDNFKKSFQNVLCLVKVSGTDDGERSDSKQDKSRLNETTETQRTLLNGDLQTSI
UniProt P31391: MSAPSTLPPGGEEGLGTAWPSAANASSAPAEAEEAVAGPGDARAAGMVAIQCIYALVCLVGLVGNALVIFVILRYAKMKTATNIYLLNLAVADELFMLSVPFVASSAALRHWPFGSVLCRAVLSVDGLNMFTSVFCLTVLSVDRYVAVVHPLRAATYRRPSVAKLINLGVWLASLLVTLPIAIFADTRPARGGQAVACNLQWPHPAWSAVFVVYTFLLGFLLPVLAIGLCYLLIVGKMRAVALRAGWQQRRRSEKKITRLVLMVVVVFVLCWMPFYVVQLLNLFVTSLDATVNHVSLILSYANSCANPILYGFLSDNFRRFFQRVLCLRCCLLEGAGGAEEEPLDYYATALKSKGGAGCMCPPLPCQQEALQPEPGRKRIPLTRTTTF
UniProt P30872: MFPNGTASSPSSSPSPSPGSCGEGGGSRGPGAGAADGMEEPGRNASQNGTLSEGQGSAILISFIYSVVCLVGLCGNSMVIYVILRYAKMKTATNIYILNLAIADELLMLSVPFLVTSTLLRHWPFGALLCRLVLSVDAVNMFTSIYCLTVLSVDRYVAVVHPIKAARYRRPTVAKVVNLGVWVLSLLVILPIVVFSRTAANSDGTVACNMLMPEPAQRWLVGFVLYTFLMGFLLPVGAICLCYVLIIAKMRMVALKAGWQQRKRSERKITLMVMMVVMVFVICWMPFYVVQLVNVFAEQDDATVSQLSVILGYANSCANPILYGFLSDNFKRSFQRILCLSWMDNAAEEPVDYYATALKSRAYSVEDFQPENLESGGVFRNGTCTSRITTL

According to US6579967B1, “Receptor-selective somatostatin analogs” (The Salk Institute for Biological Studies, priority 1999, dated 2003):

Legend:
Type in all cases: binding
Details in all cases: 125I-labelled Tyr2 analog tested as radioligand on cloned receptor
[1] = molecular target: T1, human SSTR2 (Homo sapiens, UniProt P30874); assay: Displacement of 125I-[Leu8,D-Trp22,Tyr25]-somatostatin-28 from cloned SSTR2 (receptor autoradiography on membrane pellets)
T1 construct: expressed in transfected cells; host or cells: CHO-K1 cells and CCL39 cells
Protocol: (§1) Generally, recombinant cells expressing the receptor are washed and homogenized to prepare a crude protein homogenate in a suitable buffer, as known in the art. In a typical assay, an amount of protein from the cell homogenate is placed into a small volume of an appropriate assay buffer at an appropriate pH. Candidate substances, such as potential SRIF agonists and antagonists, are added to the admixture in convenient concentrations, and the interaction between the candidate substance and the receptor polypeptide is monitored.
(§2) Receptor binding assays are performed on cloned SRIF receptors as generally set forth in Raynor et al. supra. Using such assays, one can generate KD values which are indicative of the concentration of a ligand necessary to occupy one-half (50%) of the binding sites on a selected amount of a receptor or the like, or alternatively, competitive assays can generate IC50 values which are indicative of the concentration of a competitive ligand necessary to displace a saturation concentration of a target ligand being measured from 50% of binding sites. […]
(§3) Receptor autoradiography is performed on 20 μm thick cryostat sections of the membrane pellets, mounted on microscope slides, and then stored at −20° C. […] IC50 values are calculated after quantification of the data using a computer-assisted image processing system as known in this art. […]

[2] = molecular target: T2, human SSTR4 (Homo sapiens, UniProt P31391); assay: Displacement of 125I-[Leu8,D-Trp22,Tyr25]-somatostatin-28 from cloned SSTR4 (receptor autoradiography on membrane pellets)
T2 construct: expressed in transfected cells; host or cells: CHO-K1 cells and CCL39 cells
Protocol: as §1, §2, §3

[3] = molecular target: T3, human SSTR1 (Homo sapiens, UniProt P30872); assay: Displacement of 125I-[Leu8,D-Trp22,Tyr25]-somatostatin-28 from cloned SSTR1 (receptor autoradiography on membrane pellets)
T3 construct: expressed in transfected cells; host or cells: CHO-K1 cells and CCL39 cells
Protocol: as §1, §2, §3

binding of the radioiodinated analog to SSTR2 [1]: No specific binding
binding of the radioiodinated analog to SSTR4 [2]: No specific binding
binding of the radioiodinated analog to SSTR1 [3]: No specific binding
Substance: (cyclo)H-Tyr-Cys-Phe-Phe-D-Agl(Me,2Np)-Lys-Thr-Phe-Cys-OH [Peptide No. 4]
